From US11859205B2, “Medium for culturing stem cells” (AJINOMOTO CO., INC., priority 2013, dated 2024)

How the values were obtained:
[1] = system: iPS cells; assay: Differentiation rate of iPS cells by alkaliphosphatase (ALP) staining (Example 3); assay type: cell-based, human; conditions: further cultured for 1 week after the first 1 week culture
Protocol: Groups (I) to (III) were further cultured for 1 week after the above-mentioned culture, and the differentiation rate was measured by alkaliphosphatase (ALP) staining. The differentiation rate (%) was calculated by ALP negative colony number/total colony number×100 of each well. The differentiation rates of groups (I), (II), and (III) were 0.4%, 1.5% and 2.6%, respectively. […] Similar results were also obtained by observation of colony under a microscope, and it was confirmed that a higher purification level of albumin leads to the maintenance of undifferentiated state of iPS cells at a higher rate.

[2] = system: iPS cells; assay: Viable iPS cell number with human serum albumin of varying purification level (Example 3, FIG. 3); assay type: cell-based; conditions: albumin 2.6 g/L; 13,000 cells/well seeded; cultured 1 week
Protocol: (§1) Proliferative effect of various test compounds on induced pluripotent stem cell (iPS cell) was evaluated. As the iPS cell, 201B7 strain purchased from iPS Academia Japan, Inc. was used. Cell culture was performed under conditions of 5% CO2/37° C. and using a culture vessel (Nippon Becton Dickinson Company, Ltd., Falconculture petri dish or Falconculture plate) coated with a basal membrane matrix.
(§2) Various test compounds were added at given concentrations to a medium of “E8” composition (disclosed in Nature Methods, 2011, 8, 424-429, which is incorporated herein by reference in its entirety) currently considered to be the minimum composition for cultivating human pluripotent stem cells, and used for culture, from which the effect was studied.
Each above-mentioned group of human serum albumin was added to a medium at a final concentration of 2.6 g/L, and iPS cells were cultured. A 6-well plate coated with a fragment containing an active domain of laminin 511 at 5 μg/well (iMatrix-511 (Nippi, Incorporated)) as a basal membrane matrix was used. iPS cells were single-cell seeded at 13,000 cells/well and cultured for 1 week. Y-27632 (NACALAI TESQUE, INC.: 08945-84) was added at a final concentration of 10 μM only to a medium to be used for seeding.
The cells were detached from each well by TrypLE Select (Life Technologies: 12563-011), and the number of viable cells was measured. […]

[3] = system: induced pluripotent stem cell (iPS cell) 201B7 strain; assay: Culture of iPS cells in albumin-added medium, culture results with ALP staining (Example 1); assay type: cell-based, human; design: key: +: when the albumin after a purification treatment was added to the medium, the cells proliferated; −: the cells did not proliferate except a part thereof; conditions: albumin 2.6 g/L in medium, culture 1 week, triplicate
Protocol: as §1, §2
Human serum-derived albumin was added to a medium to a final concentration of 2.6 g/L, and the culture results of each albumin were compared. Several kinds of albumins were subjected to a purification treatment (fatty acid removal treatment) to remove lipid. The culture period was 1 week. 13,000 viable cells were seeded as single-cell per well of a 6-well plate. As a basal membrane matrix, a fragment containing an active domain of laminin 511, which was purchased from Osaka University, was applied at 5 μg/well. Y-27632 was added (final concentration 10 μM, NACALAI TESQUE, INC.: 08945-84) to a medium to be used for seeding. From the next day, the cells were cultured in a medium free of Y-27632.
After the culture for 1 week, alkaline phosphatase (ALP) staining was performed to confirm maintenance of undifferentiation potency. For staining, alkaline phosphatase staining kit (Sigma-Aldrich Co. LLC.: 86-R) was used. […] However, when the albumin after a purification treatment was added to the medium, the cells proliferated. In addition, the amount of fatty acid carried (fatty acid content) of all these albumins was measured to find the results shown in Table 1.

[4] = purification + (treatment with activated carbon)

| Substance | differentiation rate (ALP negative colony number/total colony number×100) [1] [%] | culture results ([3]; purification −) | further results |
| --- | --- | --- | --- |
| Group (I): Human serum albumin (Sigma) treated by a fatty acid removal treatment | 0.4 |  |  |
| Group (II): Human serum-derived albumin (NOVA Biologics) purified with 50 wt % activated carbon at pH 4 | 1.5 |  |  |
| Group (III): Human serum-derived albumin (NOVA Biologics) purified with 50 wt % activated carbon at pH 7 | 2.6 |  |  |
| Group (IV): Human serum-derived albumin (NOVA Biologics) purified with 25 wt % activated carbon at pH 7 |  |  | effect on iPS cell growth (in words) [2]: clear growth inhibitory action |
| Group (V): Human serum-derived albumin (NOVA Biologics) purified with 13 wt % activated carbon at pH 7 |  |  | effect on iPS cell growth (in words) [2]: clear growth inhibitory action |
| albumin A: Human serum-derived albumin, commercially obtained, used without purification |  | + |  |
| albumin B: Human serum-derived albumin, used unpurified, purified with activated carbon, or re-adsorbed with fatty acid |  | − | culture results [3, 4]: + |
| albumin C: Human serum-derived albumin, used unpurified or purified with activated carbon |  | − | culture results [3, 4]: + |
